Laboratory results reported in article PMC7610391, “Photocatalytic proximity labelling of MCL-1 by a BH3 ligand” (Communications chemistry, 2019).

The chains behind the UniProt entries cited, without tags or fusion partners. Residues count along the entry.
UniProt Q07820, 172-327: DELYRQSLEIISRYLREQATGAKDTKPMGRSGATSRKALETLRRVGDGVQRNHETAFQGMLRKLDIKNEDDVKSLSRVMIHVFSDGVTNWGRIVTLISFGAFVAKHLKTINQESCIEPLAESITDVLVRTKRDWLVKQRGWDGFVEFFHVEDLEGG

Target: MCL-1 (Homo sapiens, UniProt Q07820)
Assay: biochemical

## CC[C@H](C)[C@H](NC(=O)[C@H](CCCNC(=N)N)NC(=O)[C@H](CCCNC(=N)N)NC(=O)[C@H](CC(C)C)NC(=O)[C@H](CCC(N)=O)NC(=O)[C@H](C)NC(=O)[C@H](C)NC(=O)CCCCCNC(=S)Nc1ccc2c(c1)C(=O)OC21c2ccc(O)cc2Oc2cc(O)ccc21)C(=O)NCC(=O)N[C@@H](CC(=O)O)C(=O)N[C@@H](CCCCN)C(=O)N[C@H](C(=O)N[C@@H](CC(N)=O)C(=O)N[C@@H](CC(C)C)C(=O)N[C@@H](CCCNC(=N)N)C(=O)N[C@@H](CCC(N)=O)C(=O)N[C@@H](CCCCN)C(=O)N[C@@H](CC(C)C)C(=O)N[C@@H](CC(C)C)C(=O)N[C@@H](CC(N)=O)C(N)=O)C(C)C [FITC-NOXA-B]
  Kd: 11 ± 3 nM
